{
  "source": "patent US20230233538A1",
  "about": "“COMPOSITION FOR TREATING CORONAVIRUS DISEASE-19, COMPRISING PHENANTHROINDOLIZIDINE AND PHENANTHROQUI[…] DERIVATIVES, OPTICAL ISOMER THEREOF, OR PHARMACEUTICALLY ACCEPTABLE SALTS THEREOF AS ACTIVE INGREDIENT” (priority 2020, published 2023)",
  "system": "Vero CCL-81 cells",
  "data": [
    {"smiles": "COc1ccc2c3c(c4cc(OC)c(OC)cc4c2c1)C[C@H]1CCCCN1C3", "note": "[cryptopleurin]", "values": [
      {"measurement": "Selectivity Index (SI)", "value": 6}
    ]}
  ]
}
